Experimental findings from patent US12440489B2 (priority 2016, dated 2025) are described below.

Amino acid sequences for entries named in this document (tags omitted).
UniProt P31645, whole entry, looked up: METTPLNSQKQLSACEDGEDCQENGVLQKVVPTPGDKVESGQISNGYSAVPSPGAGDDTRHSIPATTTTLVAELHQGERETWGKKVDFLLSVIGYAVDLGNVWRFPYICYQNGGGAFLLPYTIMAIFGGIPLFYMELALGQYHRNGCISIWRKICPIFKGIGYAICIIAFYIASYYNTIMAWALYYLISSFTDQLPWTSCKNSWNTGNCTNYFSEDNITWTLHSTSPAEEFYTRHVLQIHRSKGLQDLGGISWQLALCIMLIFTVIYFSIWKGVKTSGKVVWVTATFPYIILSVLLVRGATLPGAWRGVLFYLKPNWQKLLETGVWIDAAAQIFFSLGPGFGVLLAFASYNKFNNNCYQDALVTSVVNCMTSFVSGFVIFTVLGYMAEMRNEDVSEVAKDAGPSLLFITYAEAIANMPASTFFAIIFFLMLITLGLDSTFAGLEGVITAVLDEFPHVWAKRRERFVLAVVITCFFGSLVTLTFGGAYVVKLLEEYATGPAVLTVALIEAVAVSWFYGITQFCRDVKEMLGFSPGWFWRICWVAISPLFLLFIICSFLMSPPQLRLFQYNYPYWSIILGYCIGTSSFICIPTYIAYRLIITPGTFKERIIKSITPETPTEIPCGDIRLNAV

In one assay the target is SERT (Homo sapiens, UniProt P31645). Kind of assay: Receptor binding, SERT.
In a further assay the test system is 5-HT2 receptor. Kind of assay: DOI-induced head twitch model in mice. Format: in vivo.

`O=C1CN2c3c(cccc3[C@@H]3CN(CCCC(O)c4ccc(F)cc4)CC[C@@H]32)N1` (stereo partly drawn): the “maximum inhibition SERT (in words)” value at SERT is “No inhibition”. In addition, the “EC50 for reducing DOI-induced head twitches” value in the assay with 5-HT2 receptor (compound orally 0.5 hr before DOI s.c., twitches counted during 6 min) is listed as 2.03 mg/kg, p.o. The “block of DOI head twitch (in words)” value in the assay with 5-HT2 receptor (oral) was “relatively inactive”.
